According to patent US20240424134A1, “PEPTIDE HAVING INDEPENDENTLY STABILIZED HYDROPHOBIC ALPHA HELIX, PEPTIDE COMPLEX COMPRISING SAME AND USES THEREOF” (UIF (University Industry Foundation), Yonsei University, priority 2022, published 2024):

Assays:
[1] = CD (circular dichroism) spectroscopy of α-helix structure; assay type: physicochemical; settings: Table 11; peptide complexes of Examples 37-97
[2] = AFM analysis of self-assembled peptide complexes; assay type: physicochemical; settings: Table 12, self-assembled structure; for AFM morphology: 25 μM in distilled water
Description: AFM was performed using an NX10 system (Park Systems, Korea) in a non-contact mode with PPP-NCHR AFM probes (Nanosensors, Switzerland). The DNA concentration ranged from 1 to 30 ng/μL and the peptide concentration ranged from 1 to 32 μM (in H2O). 2 μL of the sample solution was cast onto a freshly cleaved mica surface and dried. The data obtained by the SmartScan program (Park Systems, Korea) was analyzed using the XEI program (Park Systems, Korea).
The CD spectroscopy was performed in the same manner as in Test Example 2 and the AFM was performed using the NX10 system (Park Systems, Korea) in a non-contact mode with PPP-NCHR AFM probes (Nanosensors, Switzerland). The peptide complex concentration ranged from 1 to 32 μM (in H2O). 2 μL of the sample solution was cast onto a freshly cleaved mica surface and dried. The data obtained by the SmartScan program (Park Systems, Korea) were analyzed using the XEI program (Park Systems, Korea).
The peptide complexes of Examples 37-40 were imaged by AFM. 25 μM of the peptide complex was dissolved in distilled water, sonicated for 5 minutes, incubated overnight and dropped on mica for measurement.

Row | Substance | θ222 nm/θ208 nm ratio [1] | Average diameter (nm) [2] | AFM morphology [2]
1 | Glucose-(PEG8)2AUAUAUAUAUAUAUAUAUAUAE [Example 96] | 1.15 | 130-190 nm | Vesicle
2 | Glucose-(PEG8)2AUAUAUAUAUAUAUAUAUAUAEE [Example 97] | 1.11 |  | 
3 | Glucose-(PEG8)2AUAUAUAUAUAUAUAUAUAUAR [Example 80] | 1.2 | 20-30 nm | Micelle
4 | Glucose-(PEG8)3AUAUAUAUAUAUAUAUAUAUAR [Example 81] | 1.15 | 20-30 nm | Micelle
5 | Glucose-(PEG8)3AUAUAUAUAUAUAUAUAUAUAUAUAUARR [Example 82] | 1.13 | 120-140 nm | Vesicle
6 | Glucose-(PEG8)4AUAUAUAUAUAUAUAUAUAUAUAUAUARR [Example 83] | 1.08 | 40-80 nm | Vesicle
7 | Glucose-(PEG8)4AUAUAUAUAUAUAUAUAUAUAUAUAUAUAUAUARR [Example 84] | 1.22 |  | 
8 | Glucose-(PEG8)5AUAUAUAUAUAUAUAUAUAUAUAUAUAUAUAUARR [Example 85] | 1.18 |  | 
9 | Glucose-GSAUAUAUAUAUAUAUAUAUAUAR [Example 86] | 1.14 |  | 
10 | Glucose-GSGSAUAUAUAUAUAUAUAUAUAUAR [Example 87] | 1.08 |  | 
11 | Glucose-GSGSGSAUAUAUAUAUAUAUAUAUAUAR [Example 88] |  | 100-140 nm | Vesicle
12 | Glucose-GSGSGSGSAUAUAUAUAUAUAUAUAUAUAR [Example 89] |  | 70-80 nm | Vesicle
13 | RAUAUAUAUAUAUAUAUAUAUA(PEG8)2-glucose [Example 76] | 1.18 | 50-160 nm | Vesicle
14 | RRAUAUAUAUAUAUAUAUAUAUA(PEG8)2-glucose [Example 77] | 1.09 | 50-190 nm | Vesicle
15 | RRRAUAUAUAUAUAUAUAUAUAUA(PEG8)2-glucose [Example 78] | 1.04 | 80-320 nm | Vesicle
16 | RRRRAUAUAUAUAUAUAUAUAUAUA(PEG8)2-glucose [Example 79] |  | 450-500 nm | Vesicle
